Patent US20250361233A1, “Compounds For Activating Serotonin Receptor” (PSYLO PTY LTD, priority 2023, published 2025)

Legend:
C57BL/6J mice = assay: Biotelemetry and head-twitch response (HTR) experiments; conditions: male C57BL/6 mice, SC, several doses (0.03 to 30 mg/kg)
[1] = In vivo pharmacokinetics: plasma and brain exposure after IP administration; conditions: male C57BL/6 mice, IP 10 mg/kg
Male ICR mice = assay: Acute restraint stress - tail suspension test (TST); type: in vivo; conditions: ICR mice after 5 h acute restraint stress, IP; P-3 3, 10 mg/kg; P-8 3, 10, 30 mg/kg; vs vehicle

Structure (SMILES)	Tolerability (temperature, locomotor activity, HTR; FIGS. 2-5) (C57BL/6J mice)	Plasma AUC0-last [1] [µM·h]	Immobility time in tail suspension test (FIG. 6) (Male ICR mice)	Cmax ([1]; read-out: Plasma Cmax) [µM]
COc1ccc2[nH]cc(CCN(C)C)c2n1	well-tolerated	1.37	–	–
COc1nccc2[nH]cc(CCN(C)C)c12	–	1.63	–	–
COc1ccc2[nH]nc(CCN(C)C)c2c1	–	1.94	decrease the immobility time of mice	7.66
